# Binding of CDR-mutated scFvs to a peptide of the spike HR2 region

The measurements come from Engelhart et al. 2022 (doi:10.1038/s41597-022-01779-4) through the FLAb antibody collection.

All variants were tested on one target, the spike HR2 peptide PDVDLGDISGINAS (SARS-CoV-2).

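The starting antibody came from a phage panning campaign against this peptide. The library (AAYL49) carries one to three amino acid substitutions per variant, with no insertions or deletions. AlphaSeq pools MATa yeast showing the antibodies with MATalpha yeast showing the peptide. Mating (16 h, 30 °C) was followed by selection of diploids and sequencing of their barcodes. Read counts were normalised to the haploid input and turned into Kd by a linear fit to BCL2-family pairs of known affinity, for each replicate. There are three technical replicates.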

Parent: Ab-14, a human scFv built as VH, a (GGGGS)3 linker, VL. Only the CDRs of the heavy chain vary.
VH: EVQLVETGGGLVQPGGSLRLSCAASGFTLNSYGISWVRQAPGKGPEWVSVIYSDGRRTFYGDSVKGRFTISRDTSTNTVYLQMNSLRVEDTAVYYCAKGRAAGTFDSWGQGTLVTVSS
VL: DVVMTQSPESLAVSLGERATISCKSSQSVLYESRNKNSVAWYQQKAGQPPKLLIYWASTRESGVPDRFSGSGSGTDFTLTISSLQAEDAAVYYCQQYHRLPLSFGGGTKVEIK

Variants are written as CDR1, CDR2 and CDR3 of the heavy chain (limits as in the source). Parent: GFTLNSYGIS, VIYSDGRRTFYGDSVK, GRAAGTFDS. Scale: log10 of Kd in nM, estimated from mating counts; low values are strong binders. Replicates are averaged; those with no signal do not enter the mean. Where no diploid with the target was found in that replicate, the entry reads "nd": below detection, most likely a poor binder, though not proof of it. Parent in this assay: reference entry 0.65, copy in this library 4.11 (one replicate of three).

CDR-H1 | CDR-H2 | CDR-H3 | log10 Kd, replicates | mean log10 Kd (nM) | control signals
FFTLNSYGIS | VIYSDGRRTFYGDSVK | GRAGGDFDS | 1.56 2.06 2.13 | 1.92 | 0/9
GFTLNSRGIS | VIYPDGRRTFYGDSVK | GRAAGTRDS | nd nd nd | nd | 1/9 (3.44)
GFTLNSNGIS | VIYSDGRRTFYGDSVK | WRASGTFDS | nd 3.22 nd | 3.22 | 1/9 (3.55)
TFTLNSYGID | VIYSDGRRTFYGDSVK | GRAAGTFDR | nd nd nd | nd | 0/9
GFTLNSYGIS | VGYSDGRRTFYGDSVK | GRAAGIFTS | nd 4.33 nd | 4.33 | 2/9 (3.71)
GFTLNQYGIS | VIASDGRRTFYGDSVK | GRAAGTFDS | 2.79 1.83 2.54 | 2.39 | 1/9 (3.99)
GDTINSYGIS | VQYSDGRRTFYGDSVK | GRAAGTFDS | 3.81 2.75 nd | 3.28 | 0/9
LFVLNSYGIS | VIYSDGRRTFYGDSVK | GRASGTFDS | nd nd nd | nd | 0/9
GFTLNSYGIM | IIYSDGRRTFYGDSVK | GRASGTFDS | nd nd nd | nd | 2/9 (3.54)
GFTLNSYGPS | VIYSDGRRTFYGDSVR | GRAASTFDS | nd nd 4.07 | 4.07 | 5/9 (4.28)
GFTLNSDGIS | VIYKDGRRTFYGDSVK | GRAAGTFDQ | nd nd nd | nd | 1/9 (3.08)
GFTLNSYGIS | VWYSGSRRTFYGDSVK | GRAAGTFDS | nd 3.20 nd | 3.20 | 1/9 (3.43)
GFTLNSYGIS | VIASDGRRTFYGDYVR | GRAAGTFDS | nd nd nd | nd | 0/9
GFTLVSYGIS | VLYSDGRHTFYGDSVK | GRAAGTFDS | nd nd nd | nd | 0/9
GFTLNSYTIS | VIFSDGRWTFYGDSVK | GRAAGTFDS | 4.40 nd nd | 4.40 | 5/9 (4.42)
GFTLNSYGIS | VIDSDARRTFYGDSVK | GRAAGTFDS | nd nd nd | nd | 0/9
GFTLNSYGIS | VIYSDGRRTGVGDSVK | LRAAGTFDS | nd nd nd | nd | 3/9 (4.30)
GFTLNCYGIS | VIYSDGRTTFYGDSVK | GRAAGTEDS | nd nd nd | nd | 1/9 (2.64)
GFTLNSGGIA | VIYSDGRRTFYGDDVK | GRAAGTFDS | nd nd nd | nd | 0/9
GFTLDSYGIS | VIYSDGRRTFYGDCVK | GRAAGTFDY | 3.19 2.51 3.21 | 2.97 | 0/9
GFTLNSYGIS | VIYSDGIRTFYGDSVQ | GRAAGWFDS | nd nd 3.44 | 3.44 | 1/9 (3.07)
GFTLNSYGIS | VIISDGRRTFYGDSVM | GRAAGTFDD | nd nd nd | nd | 0/9
GFTLNSYGIS | VIYSDGRRNFYGDIVL | GRAAGTFDS | 3.55 nd nd | 3.55 | 1/9 (4.08)
GFTLPMYGIS | VIYSDGRQTFYGDSVK | GRAAGTFDS | 4.15 3.67 4.27 | 4.03 | 4/9 (4.30)
GFTLNSYGIS | IIYSDGRRTFYGDSVK | GRAAGHFDS | 1.98 1.71 1.65 | 1.78 | 0/9
GFTLNSYGIQ | VITSDGRRTFYGDSVK | GRAAGTFDS | 5.83 nd nd | 5.83 | 1/9 (4.03)
GFTLNSYGIS | VKYSDGRRTFYGDSVD | GRAAATFDS | nd 3.81 nd | 3.81 | 1/9 (3.79)
GFTLNSYAIS | TIYSDGRRTFYGDSVK | DRAAGTFDS | nd 4.12 nd | 4.12 | 4/9 (4.12)
GFTLNSFGIS | VIYSDGRRTFYGDSVK | GRAAGGMDS | nd nd nd | nd | 0/9
GFTLNSYGIS | VIWSDMRRTFYGDSVK | GRAAGTFCS | nd nd nd | nd | 0/9
GFTLNSYGIS | VIYSDGRRTFEGDKVK | GRAKGTFDS | nd nd nd | nd | 1/9 (3.38)
GFTLMSYGIS | KIYSDGRRTFYGDSVK | GRAAGTFDD | nd nd nd | nd | 0/9
GFTLNSYGIS | VIYGDGRRTFYGDSVT | GRAAGTFDS | 4.29 nd nd | 4.29 | 0/9
GFTLNSYGIS | VIYSDGRRTFYGDSVK | GRVAGTTDS | nd nd nd | nd | 0/9
GFTLNAYGID | VIYSDGRRTFYGPSVK | GRAAGTFDS | 1.66 1.59 1.73 | 1.66 | 3/9 (4.35)
GFTLNSYGIC | VIYSCGRRTFYGDSVK | GRAAGTFDL | nd 4.44 5.67 | 5.06 | 6/9 (4.43)
GFFLNSYPIS | VIYSDGRRTFYGDYVK | GRAAGTFDS | nd 3.95 5.64 | 4.79 | 2/9 (3.49)
GFTLNSYGLS | DIYSDGRRTFYGDSNK | GRAAGTFDS | nd 5.01 nd | 5.01 | 4/9 (3.76)
GFTLNRYGIS | VIYSDGRRTFYGDSVK | GRAAWTFDS | nd nd nd | nd | 0/9
GFHLNSYGIS | VHYSDGRRTFYWDSVK | GRAAGTFDS | nd nd nd | nd | 0/9
GFTLNKYGIS | VIYSDGRRTFYGDAVK | GKAAGTFDS | 0.43 0.77 0.62 | 0.61 | 1/9 (4.41)
GFTDNSYGIS | VIYSDGRRTFYGDNVK | GRAAGTFDS | 4.24 3.76 5.89 | 4.63 | 6/9 (4.64)
GFTLNSYGIS | VIYNDGRRPFYGDSVK | GRTAGTFDS | nd nd nd | nd | 1/9 (5.21)
GFTLNSYGIS | VIYSDGRFTFRGDSVK | GRAAGTFDC | nd nd nd | nd | 1/9 (3.84)
GFTLNRPWIS | VIYSDGRRTFYGDSVK | GRAAGTFDS | nd nd nd | nd | 1/9 (3.71)
GATLNLYGII | VIYSDGRRTFYGDSVK | GRAAGTFDS | nd nd nd | nd | 0/9
GFTLNSYGIS | VIWSDGRSTFYGDSVK | GRAAMTFDS | 3.34 nd nd | 3.34 | 0/9
GFTLCSWGIS | VIYSDGRLTFYGDSVK | GRAAGTFDS | nd nd nd | nd | 0/9
GFTLNSYQIS | VLYSDARRTFYGDSVK | GRAAGTFDS | nd nd 4.44 | 4.44 | 1/9 (4.10)
GFTLNSYGIS | VIYVDGRRGFYGDSVK | GRAAGKFDS | nd 3.59 5.42 | 4.50 | 2/9 (4.63)

The 6 strongest on average among those seen in every replicate, once more:

CDR-H1,CDR-H2,CDR-H3,"log10 Kd, replicates",mean log10 Kd (nM),control signals
GFTLNKYGIS,VIYSDGRRTFYGDAVK,GKAAGTFDS,0.43 0.77 0.62,0.61,1/9 (4.41)
GFTLNAYGID,VIYSDGRRTFYGPSVK,GRAAGTFDS,1.66 1.59 1.73,1.66,3/9 (4.35)
GFTLNSYGIS,IIYSDGRRTFYGDSVK,GRAAGHFDS,1.98 1.71 1.65,1.78,0/9
FFTLNSYGIS,VIYSDGRRTFYGDSVK,GRAGGDFDS,1.56 2.06 2.13,1.92,0/9
GFTLNQYGIS,VIASDGRRTFYGDSVK,GRAAGTFDS,2.79 1.83 2.54,2.39,1/9 (3.99)
GFTLDSYGIS,VIYSDGRRTFYGDCVK,GRAAGTFDY,3.19 2.51 3.21,2.97,0/9

As a blank, each scFv also met three strains without target: over library AAYL49, 15% of these pairings were detected, typically at 4.06 and seldom below 2.83. Also given: how often the same scFv was detected with the empty control strains, with their mean in brackets.